Data taken from paper PMC12592420, “A mismatch in enzyme-redox partnerships underlies divergent cytochrome P450 activities between human hepatocytes and microsomes” (Communications Biology, 2025).

What was measured:
[1] = Free fraction in HLM incubation, equilibrium dialysis; assay type: in vitro ADME, human; conditions: fraction unbound, measured or estimated by in silico models of Fuinc
[2] = CLint in NADPH-supplemented human liver microsomes; conditions: Fig. 4a,d
rat hepatocytes = assay: Free fraction in rat hepatocytes as surrogate for HH, equilibrium dialysis; conditions: fraction unbound, measured or estimated by in silico models of Fuinc

Substance: AZ20
- fu_HLM [1]: 0.665
- HH_scaled_CLint,u (human hepatocytes (HH)): 29.9482 mL/min/kg
- HH_CLint (human hepatocytes (HH); human): 7.903 uL/min/106 cells
- Caco-2 Papp (Caco-2 cells): 61.097 10-6 cm/s
- HLM_NADPH CLint ([2]; 1 µM, single determination): 22.5 µL/min/mg
- NADPH_HLM_scaled_CLint,u [2]: 31.9737 mL/min/kg
- fu_ratHH (rat hepatocytes): 0.665
